Laboratory results: patent US11060715B2, “Ex vivo proliferation of epithelial cells” (PROPAGENIX INC., priority 2015, dated 2021)

Assays:
Assay type in all cases: cell-based, human
[1] = test system: neonatal foreskin keratinocytes, bronchial epithelial cells from a healthy donor and from a cystic fibrosis donor; test: Extended expansion in KSFM with A 83-01, EGF, isoproterenol, rHA and BMS-453; details: 100 μg/mL rHA with 1 μM A 83-01, 0.5 ng/ml EGF, 3 μM isoproterenol, 50 nM BMS-453
Experimental: In another experiment, neonatal foreskin keratinocytes, bronchial epithelial cells from a healthy donor, and bronchial epithelial cells from a cystic fibrosis donor were each cultured and passaged in KSFM supplemented with 1 μM A 83-01, 0.5 ng/ml EGF, 3 μM isoproterenol, 100 μg/mL rHA, and 50 nM BMS-453. Population doublings of the cell cultures were calculated.

[2] = test system: keratinocytes; test: Expansion of keratinocytes in KSFM supplemented with combinations of components; details: 100 μg/mL, in the presence of A83-01, EGF and isoproterenol
Experimental: In another experiment, keratinocytes were cultured in KSFM supplemented with various combinations of components. The components included epidermal growth factor (EGF), used at 0.5 ng/mL; bovine pituitary extract (BPE), used at 30 μg/mL; recombinant human serum albumin (rHA) expressed in rice, used at 100 μg/mL; isoproterenol (ISO), used at 3 μM; ALK5 inhibitor (A 83-01), used at 1 μM; ROCK inhibitor (Y-27632), used at 5 μM; Myosin II ATPase inhibitor (blebbistatin) used at 2 μM; antagonist for retinoic acid receptor (RAR), BMS-453, used at 100 nM. […] Moreover, this effect was independent of a ROCK inhibitor (Y-27632) or a Myosin II ATPase inhibitor (blebbistatin).
In another experiment, keratinocytes were cultured in the presence of increasing doses of ROCK inhibitor (Y-27632) or Myosin II ATPase inhibitor (blebbistatin), in KSFM supplemented with EGF (0.5 ng/mL), isoproterenol (3 μM), A 83-01 (1 μM), and recombinant human serum albumin (expressed in rice; 100 μg/mL).
In another experiment, keratinocytes were cultured in the presence of increasing doses (between 10 nM to 2 μM) of retinoic acid receptors (RAR) antagonist BMS-453 or retinoic acid receptors (RAR) antagonist BMS-195614, in KSFM supplemented with EGF (0.5 ng/mL), isoproterenol (3 μM), A 83-01 (1 μM), and recombinant human serum albumin (expressed in rice; 100 μg/mL).

[3] = test system: keratinocytes and airway epithelial cells; test: Growth with rHA or BPE in KSFM with A 83-01, Y-27632 or blebbistatin, isoproterenol and EGF
Experimental: Keratinocytes and airway epithelial cells were cultured in KSFM supplemented with 1 μM A 83-01, 5 μM Y-27632, 3 μM isoproterenol, and 0.5 ng/mL epidermal growth factor (EGF) on collagen-coated culture vessels. Different concentrations of recombinant human serum albumin (rHA, expressed in rice and having the amino acid sequence of SEQ ID NO:1 or SEQ ID NO:2) or bovine pituitary extract (BPE) were tested for their growth promotion effects.
In another experiment, keratinocytes and airway epithelial cells were cultured for more than five consecutive passages under various conditions, and population doublings of the cell cultures were calculated. The conditions included 1) A+Y (BPE): KSFM supplemented with 1 μM A 83-01, 5 μM Y-27632, 3 μM isoproterenol, 0.5 ng/mL EGF and 30 μg/mL BPE; 2) A+Y (rHA): KSFM supplemented with 1 μM A 83-01, 5 μM Y-27632, 3 μM isoproterenol, 0.5 ng/mL EGF and 100 μg/mL rHA (expressed in rice); and 3) A+B (rHA): KSFM supplemented with 1 μM A 83-01, 2 μM blebbistatin, 3 μM isoproterenol, 0.5 ng/mL EGF and 100 μg/mL rHA (expressed in rice).

## rHA: recombinant human serum albumin expressed in rice (Sigma, A9731), SEQ ID NO:1 or SEQ ID NO:2
[1]
  extended expansion (population doublings): supports extended expansion of epithelial cells
[2]
  extended expansion: supports extended expansion of epithelial cells to similar levels as bovine pituitary extract (BPE)
[3]; 100 μg/mL rHA versus 30 μg/mL BPE, more than five consecutive passages
  extended expansion (population doublings): supports extended expansion of epithelial cells to similar levels as bovine pituitary extract (BPE)
[3]; KSFM with 1 μM A 83-01, 5 μM Y-27632, 3 μM isoproterenol, 0.5 ng/mL EGF, collagen-coated vessels
  growth promotion (support of epithelial cell culture): can be used in place of bovine pituitary extract (BPE)
